Sequences of proteins named here, by UniProt entry; tags and fusion partners are left off. Residues count along the entry.
UniProt P28335, 33-458: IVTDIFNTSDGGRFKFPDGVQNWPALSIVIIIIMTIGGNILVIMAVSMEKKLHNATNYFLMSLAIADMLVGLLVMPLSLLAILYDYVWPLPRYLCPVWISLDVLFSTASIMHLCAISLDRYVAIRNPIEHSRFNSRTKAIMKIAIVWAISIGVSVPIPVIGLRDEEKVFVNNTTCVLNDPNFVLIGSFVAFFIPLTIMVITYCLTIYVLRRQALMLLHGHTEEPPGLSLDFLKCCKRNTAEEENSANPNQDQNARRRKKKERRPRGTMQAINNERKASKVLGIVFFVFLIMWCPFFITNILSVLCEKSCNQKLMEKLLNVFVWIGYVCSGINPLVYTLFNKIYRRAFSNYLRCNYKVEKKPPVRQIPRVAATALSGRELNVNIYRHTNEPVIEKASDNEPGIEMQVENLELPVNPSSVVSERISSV

In US7402687B2, “Dihydrobenzofuran derivatives and uses thereof” (Wyeth, priority 2005, dated 2008):

Experiments:
[1] = biological target: T1, human 5-hydroxytryptamine-2C (h5-HT2C) receptor (Homo sapiens, UniProt P28335); assay: [125I]DOI competition binding at h5-HT2C receptor in transfected CHO cell membranes; settings: [125I]DOI displacement, CHO membranes expressing h5-HT2C; 95% confidence interval in adjacent column
T1 construct: expressed in transfected cells; host or cells: CHO (Chinese Hamster Ovary) cells; membrane preparation

human 5-HT2C receptor = human 5-HT2C receptor (Homo sapiens, UniProt P28335); settings: calcium mobilization, Fluo-3-AM, CHO cells expressing human 5-HT2C; % of maximal 5-HT response

`Clc1cccc(N2CCNCC2)c1` [mCPP, meta-chlorophenylpiperazine] was tested, and the Ki [1] was 6.5 nM and the EC50 (human 5-HT2C receptor) was 5.4 nM.
